Earlier results, collected in PMC11274801, “A Novel PDE10A Inhibitor for Tourette Syndrome and Other Movement Disorders” (Cells, 2024).

Key:
D2 receptor = settings: 10 mg daily dose ref 53; cited from earlier work
[1] = parameters: method as in PMID 24021518; settings: over 10 weeks ref 55; cited from earlier work

O=C1CCc2ccc(OCCCCN3CCN(c4cccc(Cl)c4Cl)CC3)cc2N1 [aripiprazole]
D2 occupancy (D2 receptor): ~ 85% | body weight, body mass index, waist circumference [1]: increased mean body weight, body mass index, and waist circumference significantly vs. placebo
